Only a part is listed here, and it is no random draw. Activity calls are given as the source filed them. Rule as the data show it: active = inhibition above about 37%; inactive = the rest.
Assay: compounds displacing fluorescent DNA intercalator, primary screen, artefact control for HCV NS3 helicase inhibitor project, biochemical, FID fluorescence (AID 1845);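 also: 0% = vehicle and 100% = reference compound; higher means more ethidium bromide displaced from hairpin DNA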
Details: DNA fluorescent intercalator displacement, at 7.9 µM, stronger effect = higher value

Compound | inhibition
O=[N+]([O-])c1ncn(CCn2cnc([N+](=O)[O-])n2)n1 | inactive: -0.72%
O=[N+]([O-])c1ccc(O)c(/C=N/Nc2ccc([N+](=O)[O-])cc2[N+](=O)[O-])c1 | inactive: 6.38%
c1nnnn1CCn1cnnn1 | inactive: 2.42%
O=P(Nc1nccs1)(c1ccccc1)c1ccccc1 | inactive: -10.5%
CC(C)C(=O)NC(Sc1ccccc1)C(Cl)(Cl)Cl (configuration not stated) | inactive: -4.13%
Clc1n[nH]nc1-c1nn[nH][15n]1 | inactive: 2.85%
CC(C)(C)C(=O)NC(Sc1ncccn1)C(Cl)(Cl)Cl (configuration not stated) | inactive: -2.15%
CCC1=CC2Cc3nc4ccc(Cl)cc4c(N)c3C(C1)C2 (configuration not stated) | inactive: 6.59%
O=P1(Nc2ccccn2)COc2ccccc2OC1 | inactive: -2.43%
CCOP(=O)(NC(=NC(C)c1ccccc1)NC(C)c1ccccc1)OCC (configuration not stated) | inactive: -52.4%
CCOP(=O)(Nc1ccc(C)cn1)OCC | inactive: -6.61%
CN(C(=O)Cc1ccc(Cl)c(Cl)c1)[C@@H]1CCCC[C@H]1N1CCCC1 | inactive: 10.3%
CC(C)/C=N\N=C(\N)N[N+](=O)[O-] | inactive: -1.62%
O=[As](O)(c1ccccc1Br)c1ccccc1Br | inactive: -0.69%
CC1(CBr)Cn2c(nc3ccccc3c2=O)S1 (configuration not stated) | inactive: 1.15%
CN(C)C1(CNC(=O)c2ccc(S(C)(=O)=O)cc2)CCCCC1 | inactive: 5.3%
O=C(/C=C/c1ccccc1)OC1CN2CCC1CC2 (configuration not stated) | inactive: 7.18%
Cc1nn(-c2ccccc2)c2c1P(=O)(N1CCOCC1)N(C)C(c1ccccc1)=N2 (configuration not stated) | inactive: -14.1%
Cc1ccc(C(=O)OC2CN3CCC2CC3)cc1 (configuration not stated) | inactive: -4.09%
CC1CCC(C(C)C)C(OP(=O)(Nc2ccccn2)c2ccccc2)C1 (configuration not stated) | inactive: -34.9%
Nc1cccc([As](=O)(O)c2ccccc2)c1 | inactive: -0.71%
O=P1(Nc2ccc(Br)cn2)COc2ccccc2OC1 | inactive: -10.3%
Cc1ccc(OCC(=O)OC2CN3CCC2CC3)cc1 (configuration not stated) | inactive: 1.4%
O=[As](O)(c1cccs1)c1cccs1 | inactive: -0.47%

Compound | inhibition
O=P1(Nc2ncccn2)COc2ccccc2OC1 | inactive: 5.46%
O=C(O)COc1ccc([As](=O)(O)O)cc1[N+](=O)[O-] | inactive: -0.36%
Nc1ccccc1[As](=O)(O)c1ccccc1 | inactive: -2.5%
CCOP1(=S)c2c(C)nn(CCC#N)c2N=C(c2ccccc2F)N1C (configuration not stated) | inactive: -13.5%
O=P(Nc1nccs1)(c1ccccc1)c1nc2ccccc2s1 (configuration not stated) | inactive: -3.17%
O=P(Nc1nccs1)(Oc1ccccc1)Oc1ccccc1 | inactive: -12.2%
CS(=O)(=O)c1cc([N+](=O)[O-])c2no[n+]([O-])c2c1 | inactive: 1.89%
CCOP1(=S)c2c(C)nn(CCC#N)c2N=C(c2ccc(F)cc2)N1C (configuration not stated) | inactive: -16.2%
O=[N+]([O-])c1ccc2c(c1)nnn2O | inactive: 1.38%
O=[As](O)(c1cccc(O)c1)c1cccc(O)c1 | inactive: 1.03%
Cc1cccc(OCC(=O)OC2CN3CCC2CC3)c1 (configuration not stated) | inactive: 1.68%
O=C(OC1CN2CCC1CC2)c1ccc(Cl)cc1 (configuration not stated) | inactive: 3.79%
COc1cc(C(=O)NCC2(N3CCOCC3)CCCCC2)cc(Cl)c1OC(C)C | inactive: 6.14%
O=[As](O)(O)c1cccnc1 | inactive: 0.65%
CS(=O)(=O)c1ccc(Cl)c(NC(=O)COC(=O)C(O)(c2ccccc2)c2ccccc2)c1 | inactive: -40.7%
COc1cc(C2NCCC3(OCCO3)C2(C)C)cc(OC)c1OC (configuration not stated) | inactive: 13%
CCOP(=O)(Nc1cccc2ccccc12)OCC | inactive: -7.24%
Cc1ccc(NCCc2c([N+](=O)[O-])cc([N+](=O)[O-])cc2[N+](=O)[O-])cc1 | inactive: 0.61%
Nc1cccc2c([As](=O)(O)O)cccc12 | inactive: -17.7%
CCCOP(=S)(Nc1nc(N)cc(=O)[nH]1)OCCC | inactive: -15.4%
COc1ccc2nc(NP(=O)(c3ccccc3)c3ccccc3)sc2c1 | inactive: -15.9%
COc1cc(I)ccc1[As](=O)(O)O | inactive: 1.4%
Cc1c2c(nc3ccccc13)SC(C(Cl)Cl)C2 (configuration not stated) | inactive: -4.41%
O=C(OC1CN2CCC1CC2)C12CC3CC(CC(C3)C1)C2 (configuration not stated) | inactive: 25.8%

Compound | inhibition
Cc1cc(=O)[nH]c(N[N+](=O)[O-])n1 | inactive: 0.64%
COc1ccc(N/C(=N/P(=O)(N2CCOCC2)N2CCOCC2)N2CCOCC2)cc1 | inactive: 2.65%
Cc1ccc(OP(=O)(Nc2ccc([N+](=O)[O-])cn2)Oc2ccc(C)cc2)cc1 | inactive: -2.63%
Cc1ccc2nc3c(c(C)c2c1)CC(C(Cl)Cl)S3 (configuration not stated) | inactive: -2.72%
C[As](=O)(O)c1cccc(C(=O)O)c1 | inactive: 1.17%
O=[As](O)(c1ccc(O)cc1)c1ccccc1O | inactive: -5.69%
CCN(CC)C(=S)SC(NC=O)C(Cl)(Cl)Cl (configuration not stated) | inactive: 2.14%
CC(C)NC(=O)NP(=O)(Oc1ccccc1)Oc1ccccc1 | inactive: -1.55%
O=[N+]([O-])c1cc([N+](=O)[O-])c(-c2ccn[nH]2)s1 | inactive: 3.3%
ClCCSc1nnc(-c2cccnc2)o1 | inactive: -0.96%
CC(C)c1ccc(OP(=O)(Nc2ccccn2)Oc2ccccc2F)cc1 (configuration not stated) | inactive: -10.6%
CCCCOc1ccc(C(=O)NCC2(N3CCCCC3)CCCCC2)cc1OC | inactive: 1.73%
Cc1cc(SC(NC(=O)c2ccccc2)C(Cl)(Cl)Cl)nc(C(C)C)n1 (configuration not stated) | inactive: -9.78%
CCOC(=O)Nc1ccc([As](=O)(O)O)c(O)c1 | inactive: 4.62%
Cc1cc(SC(NC=O)C(Cl)(Cl)Cl)ncn1 (configuration not stated) | inactive: -1.74%
O=P(Nc1ccccn1)(c1cccc2ccccc12)c1cccc2ccccc12 | inactive: -6.76%
O=[N+]([O-])c1ccc(Nc2ccc(Oc3ccc([N+](=O)[O-])cc3[N+](=O)[O-])cc2)c([N+](=O)[O-])c1 | inactive: -4.12%
CCOC(=O)Nc1cccc([As](=O)(O)O)c1 | inactive: -1.22%
O=C(COc1ccccc1)OC1CN2CCC1CC2 (configuration not stated) | inactive: 0.98%
O=C(Nc1ccncc1[N+](=O)[O-])c1ccc([N+](=O)[O-])cc1[N+](=O)[O-] | inactive: -3.62%
COP1(=S)c2c(C)nn(CCC#N)c2N=C(c2ccc(F)cc2)N1C (configuration not stated) | inactive: -8.21%
CCC(C)N(CC(C)C)C(=S)SC(NC(C)=O)C(Cl)(Cl)Cl (configuration not stated) | inactive: -0.52%
O=C(OC1CN2CCC1CC2)c1cccc([N+](=O)[O-])c1 (configuration not stated) | inactive: 0.68%
CCOC(=O)c1ccc(NC(=O)C(C)(CCl)SC)cc1 (configuration not stated) | inactive: -4.56%

Reference: PubChem BioAssay AID1845 (The Scripps Research Institute Molecular Screening Center, 2009)
